The chains behind the UniProt entries cited, without tags or fusion partners. A line that says so, or that is headed by a name, gives the form on record, which may keep a tag or linker.
UniProt Q00731, other isoform, or with tags, fused parts or gaps limits assumed: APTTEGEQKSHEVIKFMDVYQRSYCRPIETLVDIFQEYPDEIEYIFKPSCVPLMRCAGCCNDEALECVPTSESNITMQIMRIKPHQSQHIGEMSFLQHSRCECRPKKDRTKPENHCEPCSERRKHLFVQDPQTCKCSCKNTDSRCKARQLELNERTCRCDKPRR
UniProt P15692, other isoform, or with tags, fused parts or gaps limits assumed: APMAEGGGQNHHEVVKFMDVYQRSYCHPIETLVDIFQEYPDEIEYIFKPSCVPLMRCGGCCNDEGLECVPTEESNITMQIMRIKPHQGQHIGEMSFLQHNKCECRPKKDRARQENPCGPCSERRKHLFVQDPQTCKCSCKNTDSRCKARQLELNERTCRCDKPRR

According to patent publication US20070020267A1 (published 2007):

How the values were obtained:
murine VEGF (mVEGF) [1] = target: T1, murine VEGF (mVEGF) (mouse, UniProt Q00731-2 27-190, limits assumed); assay: cell-based or functional assay
human VEGF (hVEGF) [2] = target: T2, human VEGF (hVEGF) (human, UniProt P15692-4 27-191, limits assumed); assay: cell-based or functional assay
murine VEGF (mVEGF) [3] = target: T1, murine VEGF (mVEGF); assay: SPR (BIAcore-3000), VEGF coupled to the chip, soluble Fab, 25 C
human VEGF (hVEGF) [4] = target: T2, human VEGF (hVEGF); assay: as above

Row | Binder | HuVEC growth inhibition, fold improvement over G6 (murine VEGF (mVEGF) [1]) | HuVEC growth inhibition, fold improvement over G6 (human VEGF (hVEGF) [2]) | Kd (murine VEGF (mVEGF) [3]) | Kd (human VEGF (hVEGF) [4])
1 | G6-31 Fab (Fab, V domains shown) VH: EVQLVESGGGLVQPGGSLRLSCAASGFTISDYWIHWVRQAPGKGLEWVAGITPAGGYTYYADSVKGRFTISADTSKNTAYLQMNSLRAEDTAVYYCARFVFFLPYAMDYWGQGTLVTVSS VL: DIQMTQSPSSLSASVGDRVTITCRASQDVSTAVAWYQQKPGKAPKLLIYSASFLYSGVPSRFSGSGSGTDFTLTISSLQPEDFATYYCQQGYGNPFTFGQGTKVEIKR | ≥ 100 fold | ≥ 100 fold |  | 
2 | G6-23 Fab (Fab, V domains shown) VH: EVQLVESGGGLVQPGGSLRLSCAASGFTISDYWIHWVRQAPGKGLEWVAGITPAGGYTYYADSVKGRFTISADTSKNTAYLQMNSLRAEDTAVYYCARFVFFLPYAMDYWGQGTLVTVSS VL: DIQMTQSPSSLSASVGDRVTITCRASQDVSTAVAWYQQKPGKAPKLLIYSASFLYSGVPSRFSGSGSGTDFTLTISSLQPEDFATYYCKQGYANPWTFGQGTKVEIKR | ≥ 100 fold | ≥ 100 fold |  | 
3 | NNK-2 (Fab, V domains shown, Soluble Fab, NNK variant of YADS2) VH: EVQLVESGGGLVQPGGSLRLSCAASGFAIYDYDIHWVRQAPGKGLEWVALIAPYAGATAYADSVKGRFTISADTSKNTAYLQMNSLRAEDTAVYYCSRSSFAFWLAMDYWGQGTLVTVSS VL: DIQMTQSPSSLSASVGDRVTITCRASQSYAYAVAWYQQKPGKAPKLLIYDASYLYSGVPSRFSGSGSGTDFTLTISSLQPEDFATYYCQQAYSSPDTFGQGTKVEIKR |  |  | 13 nM | 2 nM
